## Yeast mating assay B: variants of the scFv Ab-14

The measurements come from Li et al. 2023 (doi:10.1038/s41467-023-39022-2) through the FLAb antibody collection.

The target is the same throughout: PDVDLGDISGINAS, from the HR2 region of SARS-CoV-2 spike.

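The parent was found by panning a naive human phage display library on the peptide. These sequences belong to a second round, designed from the earlier measurements on random variants of the parent. Several design methods are mixed in this list. In AlphaSeq, yeast of one mating type display the scFv and yeast of the other type display the target. Mating (16 h, 30 °C) was followed by selection of diploids and sequencing of their barcodes. Scores were corrected for input abundance and mapped to Kd with protein pairs of known affinity run in the same pool. Mating was done six times.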

Ab-14 is the parent antibody, in scFv form: VH, then the linker GGGGSGGGGSGGGGS, then VL. The heavy chain is unchanged in all variants.
VH: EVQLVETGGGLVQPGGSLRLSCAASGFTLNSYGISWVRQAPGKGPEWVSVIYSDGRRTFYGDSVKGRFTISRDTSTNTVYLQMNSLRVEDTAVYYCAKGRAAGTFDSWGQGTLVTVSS
VL: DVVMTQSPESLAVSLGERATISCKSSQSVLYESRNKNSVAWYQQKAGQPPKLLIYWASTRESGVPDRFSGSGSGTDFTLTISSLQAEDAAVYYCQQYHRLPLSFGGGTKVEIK

The parent's light chain CDRs are KSSQSVLYESRNKNSVA, WASTRES, QQYHRLPLS; each variant's own CDRs replace them letter for letter.
This list holds designs with at most six substitutions.
The read-out is the apparent dissociation constant on a log10 scale (nM): the lower, the stronger.
Replicates are averaged; those with no signal do not enter the mean.
"ND" marks a missing value. The strain was present, yet no cells mated with the target were sequenced in that replicate, which points to weak or no binding.
The range of this assay differs from that of the first round, and the authors advise against merging the two.
The authors' rule: three or more of the six replicates give a measured affinity, fewer mean a poor binder.
Of ten entries with the parent sequence, four were seen in most replicates (averages 0.34 to 2.37), three in one and three in none, so single entries are noisy.
Background: pairings of all light chain designs with three empty control strains gave a value in 4% of cases (median 2.64, 5th percentile 1.59). Values in that range, when seen in few replicates, are hard to tell from nonspecific mating.

The variant KLSPSVLYESRNKNSVA / DASTRES / QQYHRLPLS gave -0.46, -0.75, -0.75, -1.10, -0.65, -0.47 (mean -0.70). The variant KVSQSVLYESRNKNNVA / EASTRES / QQYHRLPLS gave -0.32, -0.12, -0.38, -0.28, -0.19, -0.23 (mean -0.25). With QSSQSVLYEFRNKNSVA / SASTRES / QQYKILPLS the result was ND, ND, ND, 1.50, ND, ND. The variant KFSQSWGMESRNKNSVA / NASTRMS / QQYHRLPLS gave -0.07, 0.07, -0.11, -0.12, -0.16, 0.03 (mean -0.06). The variant KVSKSVLFESRNKNSVA / NASTRES / QQYHRLPLR gave 0.46, 0.54, 0.22, 0.37, 0.67, 0.76 (mean 0.50). The variant VLSQSVLYESRNKNSVA / EASTRES / QQYHRLPLS showed -0.02, -0.08, -0.55, -0.84, -0.29, -0.14 (mean -0.32). The variant KSSQSVLYESQNINSVA / WASTRES / QQYHRLPLL gave 1.08, 0.87, 1.54, 1.63, 1.22, 1.45 (mean 1.30). The variant ILSQSELYESRNKNSVA / NASTRES / QQYHRLPLS showed -0.28, 0.55, -0.30, -0.16, 0.29, -0.08 (mean 0.00).

For KLSQSWLYESRNKNSVA / HASQRCS / QQYHRLPLS, the assay gave 0.00, 0.06, -0.13, -0.45, -0.13, 0.18 (mean -0.08). The variant KSSQSVLYESRNKNSVA / WASTRES / QQYLRLPLS gave 1.68, ND, 1.68, 2.32, 2.74, 2.46 (mean 2.18). The variant KSSCGVLYEGRNKNSVA / GASTRES / QQYHRLPLS gave 0.27, 0.35, 0.14, 0.07, 0.20, 0.44 (mean 0.24). The variant KLDQSVLYESRNKNSVA / GASTRED / KQYHRLPLS gave 1.48, 1.04, 1.12, 1.31, 1.44, 1.35 (mean 1.29). With KVSQSVLYESPNKNSVA / QASTRES / QQCHRLPLS the result was ND, ND, ND, ND, ND, ND. For KLSQSQLYESRNKNSVA / NASTRMS / QQYHRLPLS, the assay gave -0.16, -0.28, -0.26, -0.47, -0.29, -0.27 (mean -0.29). The variant KMSQSVWMESRNKNSVA / EASTRES / QQYHRLPLS gave -0.16, -0.32, -0.27, -0.52, -0.33, -0.11 (mean -0.29). For KSSWSMLYESGNKNSVA / HASTRED / QQYHRLPLS, the assay gave 0.23, ND, 1.05, 2.05, -0.02, 0.84 (mean 0.83).

For KSSQSVLYESRNKNSVA / WASTREM / QQYHCLPLS, the assay gave ND, ND, ND, ND, ND, ND. The variant KLYQSVLYESRNKNSVA / GASTRES / QQYHRLPLS gave 0.06, -0.29, -0.02, -0.30, -0.25, 0.03 (mean -0.13). The variant KSSQSDLYEGKNKNSVA / RASTRES / QQYARLPLS gave -0.05, -0.28, -0.13, -0.14, -0.26, -0.20 (mean -0.18). With KSSQSVLYESWNKNAVA / EASTRES / QQDHRLMLS the result was ND, ND, ND, ND, ND, 0.22. With KSSQSCMYESRNKNSVA / QASTRES / QQYHRLPLS the result was 0.32, 0.06, 0.84, 1.21, 0.55, 0.39 (mean 0.56). For KLSQSDLYESRNKNSVA / NGSTRES / QQYHRLPLS, the assay gave 0.57, 0.35, 0.21, 0.10, 0.14, 0.36 (mean 0.29). The variant KSSISYLYESRNKNNVA / AASTRES / QQYHRLPLS gave 0.65, 0.76, 0.33, -0.01, 0.16, 0.08 (mean 0.33). The variant KYSQSVLYESRDKNSVA / NAATRES / QQYHRLPLS gave 0.62, 0.63, 0.76, 0.52, 0.81, 1.00 (mean 0.72).

With KSSKSVPYESRNKNSVA / WASTRES / QQYHRLPLS the result was 1.16, 1.28, 2.86, 3.93, ND, ND (mean 2.31). For KMSQSVLYESRNKNNVA / WASTRES / QQYHRLVLS, the assay gave ND, ND, ND, ND, ND, ND. The variant KSSQSVLYESRNINSVA / MASTREY / QQYHRLELS gave ND, ND, ND, ND, ND, ND. The variant KWSQSVLYESRNKNSVA / GASTRES / YQYARLPLS showed 0.81, 0.72, 0.28, 1.00, 0.32, 1.66 (mean 0.80). With KPSQSVLSESRNKNSVA / WASTRES / QQYHRLPLS the result was ND, ND, ND, ND, 3.71, ND. The variant KSPISYLYESRNKNSVA / AASTRES / QQYHRLPLS showed 0.07, 0.05, -0.47, -0.44, -0.55, -0.23 (mean -0.26). With KFSQSVLYESTTVNSVA / NASTRES / QQYHRLPLS the result was 0.60, 1.51, 2.31, 1.11, 0.78, 0.60 (mean 1.15). With KFSPSWLYESRNKNSVA / NASTRES / QQYHRLPLS the result was -0.18, -0.30, -0.20, -0.43, -0.27, -0.24 (mean -0.27).

With KFSQSVLFQSRNKNSVA / DASTRES / QQYHRLPLS the result was -0.15, -0.30, -0.28, -0.24, -0.30, -0.17 (mean -0.24). For RQSQSVLMESRNKNSVA / DASTRES / QQYHRLPLS, the assay gave 0.32, -0.06, -0.07, 0.13, 0.23, 0.36 (mean 0.15). The variant KSSQSVLYESRNKNSVA / WKSTRES / QQYHRLPLS gave ND, ND, ND, ND, ND, ND. The variant KLSQSVLYESRNKMSVA / NASTRES / QQYHRLPLS showed -0.06, -0.21, -0.26, -0.25, -0.08, -0.01 (mean -0.14). For KSSVSVVYFSRNKNSVA / DASTRES / QQYHRLPLS, the assay gave -0.11, -0.27, -0.22, -0.11, 0.01, 0.35 (mean -0.06). The variant KSYQSVHAESFNKNSVA / WASTRES / QQYHRLPLS showed ND, ND, ND, ND, ND, ND. The variant KLSWSMLYESRNVNSVA / DASTRES / QQYHRLPLS showed -0.24, -0.19, -0.31, -0.47, -0.36, -0.20 (mean -0.30). With KLEQSVLYESRNKNSVA / NASQREQ / QQYHRLPLS the result was -0.22, -0.26, -0.43, -0.44, -0.38, -0.19 (mean -0.32).

For KSSQSFTYESRNKNSVA / HASTRES / DQYHRLPLS, the assay gave ND, ND, ND, ND, ND, ND. With KLSQSTLYESRNKNSVA / NASTREV / QQYHRLPLS the result was 0.34, 0.59, 0.18, 0.58, 0.30, 0.51 (mean 0.42).

The closing 3 entries, repeated:

CDR-L1	CDR-L2	CDR-L3	log10 Kd, replicates	log10 Kd (nM), mean
KLEQSVLYESRNKNSVA	NASQREQ	QQYHRLPLS	-0.22, -0.26, -0.43, -0.44, -0.38, -0.19	-0.32
KSSQSFTYESRNKNSVA	HASTRES	DQYHRLPLS	ND, ND, ND, ND, ND, ND	ND
KLSQSTLYESRNKNSVA	NASTREV	QQYHRLPLS	0.34, 0.59, 0.18, 0.58, 0.30, 0.51	0.42